# Experimental data from patent US7318917B2, “Rapid assays for neurotransmitter transporters” (Vanderbilt University, priority 2002, dated 2008).
# Chains of the proteins cited; added tags and fusions are not shown.
# UniProt Q01959, whole entry: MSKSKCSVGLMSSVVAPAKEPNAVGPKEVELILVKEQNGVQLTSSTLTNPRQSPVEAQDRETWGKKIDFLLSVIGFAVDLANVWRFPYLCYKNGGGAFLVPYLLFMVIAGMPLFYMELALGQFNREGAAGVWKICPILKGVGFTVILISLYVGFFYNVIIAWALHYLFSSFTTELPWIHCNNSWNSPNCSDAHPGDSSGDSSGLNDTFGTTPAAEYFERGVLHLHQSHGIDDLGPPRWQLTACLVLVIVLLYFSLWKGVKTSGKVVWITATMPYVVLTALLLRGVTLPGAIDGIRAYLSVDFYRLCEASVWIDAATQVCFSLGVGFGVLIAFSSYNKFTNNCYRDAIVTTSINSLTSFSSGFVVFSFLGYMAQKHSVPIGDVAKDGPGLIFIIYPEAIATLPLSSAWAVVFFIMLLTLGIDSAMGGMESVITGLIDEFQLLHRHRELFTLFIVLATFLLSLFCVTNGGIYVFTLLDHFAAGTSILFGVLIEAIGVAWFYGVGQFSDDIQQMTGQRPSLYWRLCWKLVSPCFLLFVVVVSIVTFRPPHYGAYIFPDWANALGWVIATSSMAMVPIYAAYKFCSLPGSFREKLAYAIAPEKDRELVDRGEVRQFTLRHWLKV
# Target: DAT (Homo sapiens, UniProt Q01959)
# Assay: ASP+ uptake assay on FLEXstation, DAT-transfected HEK-293 cells
# Assay type: cell-based
# Parameters: expressed in transfected cells
# Conditions: FIG. 11B
# Procedure: HEK-293 cells (American Type Culture Collection, Manassas, Va.) and HEK-293 cells stably transfected with SERT, NET, or DAT (Qian et al, 1997) were maintained in monolayer culture at 37° C., 5% CO2 in Dulbecco's modified Eagle's medium (DMEM) containing 10% fetal bovine serum, 2 mM glutamine, 100 units/ml penicillin, and 100 μg/ml streptomycin. Medium for the transfected lines was supplemented with G418 (250 μg/ml). Trypsin, glutamine, penicillin, streptomycin, G418, and phosphate-free DMEM were purchased from Life Technologies, Inc. or obtained from the Vanderbilt Media Core. For all transport assays, cells were plated on poly-D-lysine (0.1 mg/ml)-coated (0.1 mg/ml)-coated 96-well plates. […]
# To limit the time delay between the addition of ASP^+ and the measurement of accumulation of ASP^+ during the kinetic assays, plates were divided in half and assayed one half at a time. […] After incubation, ASP^+ was added to the first 6 columns in 20 μL aliquots at indicated concentrations and accumulated fluorescence measured and recorded over time by the FLEXStation ultilizing SoftMax Pro Software. Then, ASP^+ was added to the last 6 columns and fluorescence accumulation measured and recorded. […]
# Endpoint assays were conducted to evaluate the sensitivity of ASP^+ uptake to transporter antagonists. […] ASP^+ accumulation was measured after 10 minutes. […]
structure (smiles),measurement,value
c1ccc(CCCN2CCN(CCOC(c3ccccc3)c3ccccc3)CC2)cc1 [GBR-12935],effect of antagonist on ASP+ accumulation by DAT,blocked
